The record followed here is BindingDB's records for PubMed 2795135 (Stanford University, 1989).

Sequences of proteins named here, by UniProt entry; tags and fusion partners are left off.
UniProt P14842, whole entry: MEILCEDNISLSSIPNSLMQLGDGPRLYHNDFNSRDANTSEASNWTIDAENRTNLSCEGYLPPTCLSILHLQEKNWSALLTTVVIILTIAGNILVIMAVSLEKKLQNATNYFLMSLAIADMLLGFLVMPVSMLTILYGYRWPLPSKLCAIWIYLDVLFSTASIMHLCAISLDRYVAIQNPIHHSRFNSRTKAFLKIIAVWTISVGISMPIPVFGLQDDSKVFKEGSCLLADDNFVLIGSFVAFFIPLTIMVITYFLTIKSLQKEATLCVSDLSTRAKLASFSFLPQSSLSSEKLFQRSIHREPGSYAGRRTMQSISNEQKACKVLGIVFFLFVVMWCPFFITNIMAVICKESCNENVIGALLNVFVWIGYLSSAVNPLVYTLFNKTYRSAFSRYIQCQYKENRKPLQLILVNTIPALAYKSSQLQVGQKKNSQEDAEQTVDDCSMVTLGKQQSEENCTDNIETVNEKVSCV

In the assay the target is 5-hydroxytryptamine receptor 2A (Rattus norvegicus, UniProt P14842).

pKi: −log10 of the molar value.

As to `O=C(CCCN1CCC2(CC1)C(=O)NCN2c1ccccc1)c1ccc(F)cc1` [8-[4-(4-fluorophenyl)-4-oxidanylidene-butyl]-1-phenyl-1,3,8-triazaspiro[4.5]decan-4-one], the pKi is 8.80.

`CCN(CC)C(=O)[C@@H]1C=C2c3cccc4[nH]cc(c34)C[C@H]2N(C)C1` [(4R,7R)-N,N-diethyl-6-methyl-6,11-diazatetracyclo[7.6.1.0^{2,7}.0^{12,16}]hexadeca-1(16),2,9,12,14-pentaene-4-carboxamide] had a pKi of 8.46.
